Measurements as given in patent publication US8592579B2, “Pyrrolotriazine kinase inhibitors” (Bristol-Myers Squibb Company, priority 2006, dated 2013).

Tested on: IGF1R-Sal tumors
Test: IGF-1R Sal Tumor Model
Settings: Mus musculus, po, 96 h, read-out: IGF-1R Sal % TGI

With `CO[C@H]1C[C@@H](C(=O)Nc2cnccn2)N(c2nc(Nc3cc(C4CC4)[nH]n3)c3cccn3n2)C1` [Example 255, (2S,4S)-1-(4-(5-cyclopropyl-1H-pyrazol-3-ylamino)pyrrolo[1,2-f][1,2,4]triazin-2-yl)-4-methoxy-N-(pyrazin-2-yl)pyrrolidine-2-carboxamide] the inhibition in vivo at 25 mg/kg was 112%.
